Test results reported in PMC6921279 (Frontiers in Endocrinology, 2019).

Test system: CRF1R-mediated ERK1/2 phosphorylation
Experiment: Modulation of CRF-stimulated ERK1/2 phosphorylation in COS-7 cells expressing HA-CRF1R
Assay type: cell-based
Conditions: β-arrestin-2 co-expression; 100 nM CRF
From the text: The HA-epitope tagging human CRF1R (HA-CRF1R), the HA-CRF1R-Δ386 mutant, and the β-arrestin-2 constructs were previously described ([22]–[24]). Plasmid pRK5 encoding the carboxyl terminus of βARK that contains its βγ-binding domain (ct-βARK) was kindly provided by Dr. W. Koch (Center for Translational Medicine, Temple University, Philadelphia, PA), which is a scavenger for G protein βγ subunits ([25]). […] Plasmid pUSEamp encoding dominant-negative Akt-K179M (dn-Akt) was from Upstate Biotechnology (Lake Placid, NY).
COS-7 cells (from the American Type Culture Collection) were cultured at 37°C in a humidified atmosphere of 95% air, 5% CO2, in DMEM supplemented with 10% FBS, 100 μg/ml streptomycin, and 100 units/ml penicillin (COS-7 growth medium). […]
The protocols for measuring total and phosphorylated ERK1/2, c-Src, PYK2, Akt, and EGFR have been previously published ([28], [29]). […] The labeled bands were quantified using the Quantity One 4.6.3 software program (Bio-Rad).
Figure 2 CRF-induced ERK1/2 phosphorylation is dependent on Gi protein. […] Total cell lysates were separated by SDS-PAGE and analyzed by immunoblotting with anti-p-ERK1/2 Thr^202/Tyr^204, as described in Materials and Methods. ERK1/2 phosphorylation was quantitated by densitometry, and mean values were plotted from five independent experiments. […]

## β-arrestin-2: full-length β-arrestin-2 expression construct
  effect on CRF-mediated ERK1/2 phosphorylation: significant increase in the CRF-mediated ERK1/2 phosphorylation
